Experimental data: PubChem BioAssay AID1217 (Sanford-Burnham Center for Chemical Genomics, 2008)
The entries are a selection whose mix differs from that of the whole data set. Calls of active or inactive are those of the source.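 Rule for the calls: active = primary screen inhibition at 20 µM above a set limit (cut at about 50% in these data); inactive = the rest.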

Test system: diaphorase (Clostridium kluyveri)
Assay: diaphorase inhibitors and chemical oxidizers, primary screen, counter-screen for diaphorase-coupled primary assays, biochemical, uHTS, resorufin fluorescence (AID 1217);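 note: plate controls were DMSO with full reaction for no effect and wells lacking NADH for full effect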
Conditions: diaphorase resazurin-to-resorufin fluorescence, NADH, 16 min; at 20 µM; stronger effect = higher value; bacterial (C. kluyveri) enzyme, not human
Outline: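 Test system: diaphorase enzyme from Clostridium kluyveri; amount: diaphorase at 0.14 U/mL in enzyme working solution; detection: fluorescence of resorufin formed from resazurin, Ex 544/Em 590 nm; times: reaction incubation of 16 min at room temperature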

| SMILES | inhibition |
| --- | --- |
| CCOc1ncccc1C(=O)NCC1(N2CCOCC2)CCCCC1 | inactive: 6.4% |
| CC(C)(C)OC(=O)N1CCC(Nc2ccccc2)CC1 | inactive: 4.2% |
| COc1cc(OC)cc(C(=O)NCC2(N3CCOCC3)CCCCC2)c1 | inactive: 4.8% |
| CCC(CO)(C(=O)OC1CN2CCC1CC2)c1ccccc1 (stereo not given) | inactive: 11% |
| Fc1ccccc1NC1CCN(Cc2ccccc2)CC1 | inactive: 17.5% |
| CCN1CCC(Nc2cccc(F)c2)CC1 | inactive: 15.7% |
| CN(C)c1ccc(C(=O)NCC2(N3CCCCC3)CCCCC2)cc1 | inactive: 4.6% |
| N#Cc1ccc(C(=O)NCC2(N3CCCCC3)CCCCC2)cc1 | inactive: 1.1% |
| c1ccc(CN2CCC(Nc3ccccc3)CC2)cc1 | inactive: 17.5% |
| COc1ccc(C(=O)NCC2(N3CCOCC3)CCCCC2)cc1OC | inactive: 4.5% |
| N/C(=N\O)c1c(N)no[n+]1[O-] | inactive: 2.2% |
| O=C(OC1CN2CCC1CC2)C1c2ccccc2C=Cc2ccccc21 (stereo not given) | inactive: -3.4% |
| CC(C)c1ccc(NC2CCN(C(=O)OC(C)(C)C)CC2)cc1 | inactive: 19.6% |
| CN(C)c1cccc(C(=O)NCC2(N3CCCCC3)CCCCC2)c1 | inactive: 8.9% |
| COc1ccc(CN(CCCl)CCCl)cc1Cl | inactive: -8.7% |
| N#CC1(Nc2ccccc2)CCN(CCc2ccccc2)CC1 | inactive: 3.6% |
| O=C(NCC1(N2CCCCC2)CCCCC1)c1cccc([N+](=O)[O-])c1 | inactive: 1.4% |
| O=C(NCC1(N2CCOCC2)CCCCC1)c1cc(=O)[nH]c2ccccc12 | inactive: 2.9% |
| CN1CCN(CCOC(=O)C(O)(c2ccccc2)c2ccccc2)CC1 | inactive: 14.9% |
| COc1ccc(NC2CCN(C(=O)OC(C)(C)C)CC2)cc1 | inactive: 7.4% |
| COc1ccc(NC2CCN(CCc3ccccc3)CC2)c(OC)c1 | inactive: 30.9% |
| COc1ccc(C(=O)NCC2(N3CCCCC3)CCCCC2)c(OC)c1OC | inactive: -12.5% |
| O=C(NCC1(N2CCOCC2)CCCCC1)c1cc2ccccc2o1 | inactive: 13.8% |
| O=C(OC1CN2CCC1CC2)C1c2ccccc2Oc2ccccc21 (stereo not given) | inactive: 16.1% |
| CCOC(=O)N1CCC(Nc2ccc(OC)cc2)CC1 | inactive: 4.6% |
